# Values of other authors as cited in patent publication US20090233840A1, “Modified Dynorphin Expression in Animals and Identification of Compounds for Treatment of Obesity and Diabetes” (priority 2004, published 2009).
# Sequences of proteins named here, by UniProt entry; tags and fusion partners are left off.
# UniProt P35372, whole entry: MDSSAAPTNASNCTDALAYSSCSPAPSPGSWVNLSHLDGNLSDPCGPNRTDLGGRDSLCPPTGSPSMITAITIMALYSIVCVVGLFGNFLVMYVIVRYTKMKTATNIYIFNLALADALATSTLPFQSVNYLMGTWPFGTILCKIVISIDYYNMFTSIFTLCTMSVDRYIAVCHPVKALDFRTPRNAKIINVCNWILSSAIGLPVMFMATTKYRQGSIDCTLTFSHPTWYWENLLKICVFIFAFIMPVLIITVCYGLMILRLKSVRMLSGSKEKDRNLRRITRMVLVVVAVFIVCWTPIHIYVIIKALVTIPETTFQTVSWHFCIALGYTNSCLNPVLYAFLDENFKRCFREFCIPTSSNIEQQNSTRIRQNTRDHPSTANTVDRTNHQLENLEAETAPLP
# UniProt P41143, whole entry: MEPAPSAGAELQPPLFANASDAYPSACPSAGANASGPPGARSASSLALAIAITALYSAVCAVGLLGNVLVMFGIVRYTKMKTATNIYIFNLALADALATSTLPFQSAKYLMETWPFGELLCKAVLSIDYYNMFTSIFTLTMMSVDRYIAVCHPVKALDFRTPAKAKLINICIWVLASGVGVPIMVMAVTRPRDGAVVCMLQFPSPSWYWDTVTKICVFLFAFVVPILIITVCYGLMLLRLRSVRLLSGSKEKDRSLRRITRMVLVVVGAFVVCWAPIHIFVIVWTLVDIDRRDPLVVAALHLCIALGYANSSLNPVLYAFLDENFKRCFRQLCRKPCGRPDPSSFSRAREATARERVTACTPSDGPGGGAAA
# How the values were obtained:
# [1] = biological target: T1, hMOR-1 (Homo sapiens, UniProt P35372); details: human MOR-1 receptor
# [2] = biological target: T1, hMOR-1; details: read-out: calculated EC50, K+ current; Xenopus oocytes, hMOR-1 + GIRK1; mean ±S.E., n=2-3
# [3] = biological target: human DOR-1 (Homo sapiens, UniProt P41143); details: DOR-1 receptor
Substance,affinity values [1],EC50 [2],affinity compared to dynorphin A [3]
dynorphin A,nanomolar range,30 ± 5 nM,
dynorphin A-(1-8),,,relatively higher affinity
